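Results reflect a 48-hour exposure of cells in 96-well plates to compound at five concentrations. Abbreviation: GI50, concentration required for 50% inhibition of growth. TGI: concentration producing complete growth inhibition.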
Key:
Experiment in all cases: DTP human tumour cell line panel, 48 h
[1] = test system: 786-0 renal
[2] = test system: HOP-92 NSCLC
[3] = test system: NCI-H226 lung
[4] = test system: NCI-H322M lung
[5] = test system: SR leukemia
[6] = test system: UACC-62 melanoma
[7] = test system: NCI-H23 lung
[8] = test system: HL-60(TB) leukemia
[9] = test system: NCI/ADR-RES ovarian
[10] = test system: ACHN renal
[11] = test system: MDA-MB-231 breast
[12] = test system: OVCAR-4 ovarian
[13] = test system: M14 melanoma
[14] = test system: OVCAR-5 ovarian
[15] = test system: OVCAR-8 ovarian
[16] = test system: MCF7 breast
[17] = test system: SF-295 CNS
[18] = test system: SN12C renal
[19] = test system: CAKI-1 renal
[20] = test system: A549 NSCLC
[21] = test system: SW-620 colon
[22] = test system: KM12 colon
[23] = test system: UACC-257 melanoma
[24] = test system: RXF 393 renal
[25] = test system: TK-10 renal
[26] = test system: EKVX NSCLC
[27] = test system: UO-31 renal
[28] = test system: BT-549 breast
[29] = test system: SF-268 CNS
[30] = test system: CCRF-CEM leukemia
[31] = test system: SK-OV-3 ovarian
[32] = test system: SK-MEL-28 melanoma
[33] = test system: DU-145 prostate
[34] = test system: MDA-MB-435
[35] = test system: OVCAR-3 ovarian
[36] = test system: NCI-H460 lung
[37] = test system: HT29 colon
[38] = test system: LOX IMVI melanoma
[39] = test system: SK-MEL-2 melanoma
[40] = test system: HS 578T breast
[41] = test system: MDA-N
[42] = test system: SK-MEL-5 melanoma
[43] = test system: A498 renal
[44] = test system: PC-3 prostate
[45] = test system: SNB-75 CNS
[46] = test system: HOP-62 NSCLC
[47] = test system: U251 CNS
[48] = test system: COLO 205 colon
[49] = test system: NCI-H522 lung
[50] = test system: HCT-116 colon
[51] = test system: K-562 leukemia
[52] = test system: HCT-15 colon
[53] = test system: SF-539 CNS
[54] = test system: T-47D breast
[55] = test system: MOLT-4 leukemia
[56] = test system: HCC-2998 colon
[57] = test system: MALME-3M melanoma
[58] = test system: SNB-19 CNS
[59] = test system: IGROV1 ovarian

Compound `Cc1ccc2c(c1)C(C(Cl)(Cl)Cl)OP(=O)(N(CCCl)CCCl)O2` (centres undefined) has a GI50 [1] of 54.7 µM, a TGI [1] of over 100 µM and a GI50 [2] of 5.73 µM. For the same compound, the TGI [2] was 74.6 µM, the GI50 [3] was 26.5 µM and the TGI [3] was over 100 µM. The GI50 [4] was over 100 µM, the TGI [4] was over 100 µM and the GI50 [5] was over 100 µM. The TGI [5] was over 100 µM, the GI50 [6] was 5.73 µM and the TGI [6] was over 100 µM. The GI50 [7] was 11.6 µM, the TGI [7] was over 100 µM and the GI50 [8] was 4.72 µM. It also gave a TGI [8] of over 100 µM, a GI50 [9] of 4.07 µM and a TGI [9] of over 100 µM. It also gave a GI50 [10] of 9.46 µM, a TGI [10] of over 100 µM and a GI50 [11] of 85.1 µM. The TGI [11] was over 100 µM, the GI50 [12] was 9.54 µM and the TGI [12] was over 100 µM. The GI50 [13] was 5.26 µM, the TGI [13] was over 100 µM and the GI50 [14] was over 100 µM. It also gave a TGI [14] of over 100 µM, a GI50 [15] of 6.02 µM and a TGI [15] of over 100 µM. For the same compound, the GI50 [16] was over 100 µM, the TGI [16] was over 100 µM and the GI50 [17] was 10.5 µM. The TGI [17] was over 100 µM, the GI50 [18] was 27.8 µM and the TGI [18] was over 100 µM. The GI50 [19] was 6.41 µM, the TGI [19] was over 100 µM and the GI50 [20] was 6.41 µM. For the same compound, the TGI [20] was over 100 µM, the GI50 [21] was over 100 µM and the TGI [21] was over 100 µM. The GI50 [22] was 4.66 µM, the TGI [22] was over 100 µM and the GI50 [23] was 40 µM. It also gave a TGI [23] of over 100 µM, a GI50 [24] of 31.4 µM and a TGI [24] of over 100 µM. For the same compound, the GI50 [25] was 25.8 µM, the TGI [25] was over 100 µM and the GI50 [26] was over 100 µM. It also gave a TGI [26] of over 100 µM, a GI50 [27] of 4.85 µM and a TGI [27] of over 100 µM. The GI50 [28] was 27.5 µM, the TGI [28] was over 100 µM and the GI50 [29] was 91.8 µM. The TGI [29] was over 100 µM, the GI50 [30] was 3.51 µM and the TGI [30] was over 100 µM. It also gave a GI50 [31] of 57.6 µM, a TGI [31] of over 100 µM and a GI50 [32] of over 100 µM. The TGI [32] was over 100 µM, the GI50 [33] was 82.2 µM and the TGI [33] was over 100 µM. It also gave a GI50 [34] of over 100 µM, a TGI [34] of over 100 µM and a GI50 [35] of 8.4 µM. The TGI [35] was over 100 µM, the GI50 [36] was 4.37 µM and the TGI [36] was over 100 µM. The GI50 [37] was 42.2 µM, the TGI [37] was over 100 µM and the GI50 [38] was 18.2 µM. For the same compound, the TGI [38] was over 100 µM, the GI50 [39] was 3.04 µM and the TGI [39] was 45.8 µM. For the same compound, the GI50 [40] was 4.51 µM, the TGI [40] was over 100 µM and the GI50 [41] was 74.9 µM. It also gave a TGI [41] of over 100 µM, a GI50 [42] of 5.97 µM and a TGI [42] of over 100 µM. For the same compound, the GI50 [43] was over 100 µM, the TGI [43] was over 100 µM and the GI50 [44] was 4.57 µM. The TGI [44] was over 100 µM, the GI50 [45] was 46 µM and the TGI [45] was over 100 µM. The GI50 [46] was 16.7 µM, the TGI [46] was over 100 µM and the GI50 [47] was 33 µM. For the same compound, the TGI [47] was over 100 µM, the GI50 [48] was 23.3 µM and the TGI [48] was over 100 µM. It also gave a GI50 [49] of 6.53 µM, a TGI [49] of over 100 µM and a GI50 [50] of 8.68 µM. It also gave a TGI [50] of over 100 µM, a GI50 [51] of 3.08 µM and a TGI [51] of over 100 µM. For the same compound, the GI50 [52] was 6.66 µM, the TGI [52] was over 100 µM and the GI50 [53] was over 100 µM. For the same compound, the TGI [53] was over 100 µM, the GI50 [54] was 4.58 µM and the TGI [54] was over 100 µM. For the same compound, the GI50 [55] was over 100 µM, the TGI [55] was over 100 µM and the GI50 [56] was 80.4 µM. It also gave a TGI [56] of over 100 µM.

`COc1ccc2c3c1O[C@H]1C4(OC)C=CC5(C6C(=O)N(c7ccccc7)C(=O)C64)C(C2)N(C)CCC315` (some centres undefined) showed a TGI [1] of over 100 µM, a TGI [2] of over 100 µM and a TGI [4] of over 100 µM. It also gave a TGI [6] of over 100 µM, a TGI [7] of over 100 µM and a TGI [8] of over 100 µM. For the same compound, the TGI [9] was over 100 µM, the TGI [10] was over 100 µM and the TGI [11] was over 100 µM. It also gave a TGI [12] of over 100 µM, a TGI [13] of over 100 µM and a TGI [14] of over 100 µM. For the same compound, the TGI [15] was over 100 µM, the TGI [16] was over 100 µM and the TGI [17] was over 100 µM. The TGI [18] was over 100 µM, the TGI [57] was over 100 µM and the TGI [19] was over 100 µM. It also gave a TGI [20] of over 100 µM, a TGI [21] of over 100 µM and a TGI [22] of over 100 µM. The TGI [23] was over 100 µM, the TGI [24] was 38.2 µM and the TGI [25] was over 100 µM. For the same compound, the TGI [26] was over 100 µM, the TGI [27] was over 100 µM and the TGI [28] was over 100 µM. For the same compound, the TGI [29] was over 100 µM, the TGI [30] was over 100 µM and the TGI [31] was over 100 µM. The TGI [32] was over 100 µM, the TGI [58] was over 100 µM and the TGI [33] was over 100 µM. It also gave a TGI [34] of over 100 µM, a TGI [35] of over 100 µM and a TGI [36] of over 100 µM. The TGI [37] was over 100 µM, the TGI [38] was over 100 µM and the TGI [39] was over 100 µM. For the same compound, the TGI [40] was over 100 µM, the TGI [41] was over 100 µM and the TGI [43] was over 100 µM. For the same compound, the TGI [44] was over 100 µM, the TGI [45] was 36.5 µM and the TGI [46] was 85.3 µM. The TGI [47] was over 100 µM, the TGI [49] was over 100 µM and the TGI [50] was over 100 µM. It also gave a TGI [52] of over 100 µM, a TGI [59] of over 100 µM and a TGI [54] of over 100 µM. For the same compound, the TGI [56] was over 100 µM.

Reference: PubChem BioAssay (NCI)
